Screens as filed in PubChem.
Most compounds without a hit are left out; they make up all but 1.1% or so of the library.
Apoferritin bind – candidate novel general anesthetic via apoferritin binding | apoferritin/1-aminoanthracene competitive binding, fluorescence | Potency, µM (doses to about 77.5 µM), inactives show at the highest dose activity change, negative = displacement, actives largely listed as inhibitors | 350,000 compounds, 0.074% hits | P02791 | AID 485281; note: potency is the fitted concentration of half-maximal effect; % is set by controls: 0 for no effect and ±100 for the full control effect; nearly all actives have a fitted effect of over 20% in size
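Apoferritin-based anesthetic binding model; compound displacement of fluorescent 1-AMA measured as endpoint fluorescence after 10 minutes at room temperature, scaled to free-ligand and complex controls.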
BRCA1 expr act – increases BRCA1 expression; MCF7-BRCA1-FFLuc reporter, luminescence, 48 h; response scale: scaled: vehicle 0%, 10 µM genistein 100%; Potency, µM (titrated, usually from 46.1 µM), without a hit: at the top dose activation, hits mostly activators; 380,000 compounds, 1.1% hits; note: potency is the fitted concentration of half-maximal effect; nearly all actives have a fitted effect of over 80% in size
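MCF7 cells carrying a BRCA1-firefly luciferase reporter (2000 cells/well, phenol-red free MEM) were attached for 2 h at 37 °C, then given compounds for 48 h. Luminescence was read 15 min after luciferase reagent; activity normalized to genistein (10 microM) and DMSO.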
miR-21 reporter – raises the signal of a miR-21 reporter. Potency, µM (highest dose often 38.3 µM), without a hit: top-dose reporter change, positive = more light. 340,000 tested, under 10 active. HeLa miR-21 FLuc reporter, luciferase, 48 h; active = well fitted rising curve with a large enough effect; inconclusive = small, poorly fitted or top-dose-only effect; inactive = no such curve, though single readings can be large or run the other way;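 further: % of control where 0% means no effect; miR-21 action dims this reporter so a rising signal means less miR-21 action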
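HeLa cells endogenously expressing miR-21, stably carrying CMV-driven firefly luciferase with a downstream miR-21 binding site, 2000 cells/well. Titrations up to approximately 40 uM, 48 hours; luciferase luminescence read.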
p53 reactivator – restores transcriptional activity of mutant p53 | Potency, µM (doses to about 92.2 µM), inactives show at the top dose activity change, positive = activation, usual class: activators | H1299 p53-A138V BP100-luciferase reporter, luminescence, 24 h | 320,000 compounds, 0.063% hits | AID 504706; note: potency is the fitted concentration of half-maximal effect; % of control where 0% means no effect; nearly all actives have a fitted effect of over 45% in size
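H1299 (p53-null), stable ts p53-A138V + BP100-Luc; 1000 cells/well, Opti-MEM/10% FBS; cpd 4 pt, 1:5; 24 h, 37 deg C, 5% CO2; detection reagent 10 min RT; luminescence.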
Starred values were filed as active, the others as inactive; u = inconclusive; x = no result given; [ ] = dose if it differs, or a comment. Unless noted, calls come from the whole dose curve; as a rule, active = well fitted curve in the direction sought with a large enough effect; inconclusive = small, poorly fitted or top-dose-only effect, or another doubt; inactive = no such curve, though single readings can be large; an effect the other way counts as inactive or inconclusive.

SMILES | Apoferritin bind | BRCA1 expr act | miR-21 reporter | p53 reactivator
c1ccc(CCCCc2ccncc2)cc1 | x | 12% | x | x
CSc1ccc(/C=C/C(=O)NC(=O)c2ccccc2O)cc1 | -14% | 13µM* | -25% | 6%
CCOc1cc(C#N)c(NC(=O)c2ccc(OC)c(S(=O)(=O)N3CCN(c4ccccc4)CC3)c2)cc1OCC | 2% | x | 11% | x
COc1ccccc1NC(=O)C(=O)/C=C(\O)c1ccccc1 | -5% | 2.8µM* | -57% | 9%
Cc1ccc(-c2cc(=O)c3cc(F)ccc3[nH]2)cc1 | -10% | -13% | -16% | u
Cc1ccc(-c2cc(=O)c3cc(C)ccc3[nH]2)cc1 | 0%[163 µM] | -8% | 18% | 22µM*
Cc1cccc(-n2nnc(C(=O)Nc3ccc(F)cc3)c2N)c1 | 2% | 4.5µM* | -27% | u
CCC(C)c1ccc(NC(=O)c2cccnc2)cc1 (stereo unspecified) | -8% | 3.5µM* | -50% | -4%
Cn1c(N)c(C(=O)COC(=O)C2=NNC(=O)CC2)c(=O)n(C)c1=O | 1% | -32% | -5% | -4%
Cc1cc(/C=C2\C(=O)NN(c3ccccc3)C2=O)c(C)n1-c1ccccc1O | 0% | 10µM* | -40% | 12%
Cc1nn(C)cc1/C=C/C(=O)c1ccccc1 | -10% | 69% | -20% | u
Cc1nn(C)cc1/C=C/C(=O)c1cccs1 | -4% | u | -67% | 20µM*
CC(C)[C@H](NC(=O)c1ccc([N+](=O)[O-])cc1Cl)C(=O)N1CCN(C/C=C/c2ccccc2)CC1 | x | -45% | x | 0%
CCN(CC)c1ccc(/C=C(/C#N)C(=O)NCc2ccccc2)o1 | u | 10µM* | -72% | 27%
CCN(CC)c1ccc(/C=C(/C#N)C(=O)NC(C)C)o1 | -14% | 61% | -46% | 3%
COC(=O)c1ccc(/C=N/OCC(=O)NC2CCCC(C)C2C)cc1 (stereo unspecified) | 11µM* | -60% | -8% | -4%
COC(=O)c1ccc(/C=N/OCC(=O)NC2CCCCCCC2)cc1 | 7.9µM* | -19% | -2% | 1%
CC1CCCC(NC(=O)COC(=O)c2ccc(N(C)C)cc2)C1C (stereo unspecified) | u | 0%[1.84 µM] | -1% | -3%
O=C(CCNC(=O)c1ccc(Cl)cc1)NNC(=O)c1ccc(F)cc1 | x | 13% | x | 2%
CC1CCN(CCCC(=O)c2ccc(F)cc2)CC1 | -4% | x | x | x

Looked up above:
Entry for CSc1ccc(/C=C/C(=O)NC(=O)c2ccccc2O)cc1 under Apoferritin bind: -14%
Entry for CCOc1cc(C#N)c(NC(=O)c2ccc(OC)c(S(=O)(=O)N3CCN(c4ccccc4)CC3)c2)cc1OCC under miR-21 reporter: 11%

Other records follow:
SMILES | Apoferritin bind | BRCA1 expr act | miR-21 reporter | p53 reactivator
O=C(CCCC(=O)c1ccc(F)cc1)c1ccc(F)cc1 | -7% | 2.5µM* | -66% | u
O=C(Nc1ccc(N2CCN(C(=O)c3ccco3)CC2)cc1)c1cc(Br)ccc1Cl | x | -60% | x | -11%
O=C(Cc1ccc(Cl)cc1)Nc1ccc(N2CCN(C(=O)c3ccco3)CC2)cc1 | -8% | -27% | 1% | -10%
O=C(c1ccco1)N1CCN(c2ccc(Cl)c(Cl)c2)CC1 | x | 13µM* | x | x
O=C(c1ccco1)N1CCN(c2ccc(Cl)cc2)CC1 | 8% | 11µM* | -59% | u
CCOC(=O)c1c(C)oc2nc(C)nc(NCc3ccc(OC)cc3)c12 | -5% | x | -29% | x
Cc1c(/C=C/C(=O)c2ccc(O)cc2)cnn1C | -13% | u | -68% | u
Cc1c(/C=C/C(=O)c2ccccc2)cnn1C | -18% | u | -58% | u
Cc1c(/C=C/C(=O)c2ccc(C(C)C)cc2)cnn1C | -23% | 11µM* | -31% | -8%
CCn1ncc(/C=C/C(=O)c2ccccc2)c1C | -5% | 11µM* | -62% | u
CCOC(=O)c1c(S(=O)(=O)N2CCC(C(=O)N3CCN(c4cc(C)ccc4C)CC3)CC2)c(C)n(C)c1C | -10% | x | u | x
CC[C@H]1c2[nH]c3ccccc3c2C[C@H]2C(=O)N(c3ccc(F)cc3)C(=O)N21 | x | -5% | x | -1%
O=C(CSc1nccn1-c1ccccc1)Nc1nc2ccccc2s1 | -7% | 11µM* | -62% | x
O=C(O)c1cccc([N+](=O)[O-])c1C(=O)Nc1nc2ccccc2s1 | -8% | 0% | -11% | u
CCOCC(=O)Nc1nc2ccccc2s1 | -15% | 7.9µM* | -39% | u
CCNC(=O)Nc1nc2ccccc2s1 | -7% | 3.2µM* | -47% | 14%
O=C(Nc1nc2ccccc2s1)c1ccccc1[N+](=O)[O-] | 1% | 69% | -37% | 28µM*
C[C@H](CO)N1C[C@H](C)[C@@H](CN(C)CC2CCCCC2)Oc2ccc(NC(=O)Cn3cnnn3)cc2C1=O | x | 11% | x | 7%
Cc1ccc(Nc2nc3ccccc3s2)cc1 | -23% | -18% | -45% | u
CN(C)C(=S)Nc1nc2ccccc2s1 | -10% | 3.5µM* | -5% | 10%

A portion of the results above, as a working copy:
SMILES | Apoferritin bind | BRCA1 expr act | miR-21 reporter | p53 reactivator
CCOC(=O)c1c(S(=O)(=O)N2CCC(C(=O)N3CCN(c4cc(C)ccc4C)CC3)CC2)c(C)n(C)c1C | -10% | x | u | x
CC[C@H]1c2[nH]c3ccccc3c2C[C@H]2C(=O)N(c3ccc(F)cc3)C(=O)N21 | x | -5% | x | -1%
O=C(CSc1nccn1-c1ccccc1)Nc1nc2ccccc2s1 | -7% | 11µM* | -62% | x
O=C(O)c1cccc([N+](=O)[O-])c1C(=O)Nc1nc2ccccc2s1 | -8% | 0% | -11% | u
CCOCC(=O)Nc1nc2ccccc2s1 | -15% | 7.9µM* | -39% | u
CCNC(=O)Nc1nc2ccccc2s1 | -7% | 3.2µM* | -47% | 14%
O=C(Nc1nc2ccccc2s1)c1ccccc1[N+](=O)[O-] | 1% | 69% | -37% | 28µM*

Continued:
SMILES | Apoferritin bind | BRCA1 expr act | miR-21 reporter | p53 reactivator
CCOc1ccc2nc(NC(=S)N(C)C)sc2c1 | -13% | u | -12% | u
Cc1ccccc1Nc1nc2ccccc2s1 | u | 3.5µM* | -58% | u
CCCC(=O)Nc1nc2ccc(OCC)cc2s1 | -10% | 6.3µM* | -58% | 3.2µM*
O=C(c1nc2ccccc2[nH]1)c1ccccc1[N+](=O)[O-] | -5% | 11µM* | -45% | u
Cc1cccc(-n2ncc3c(NCc4cccnc4)ncnc32)c1 | -14% | 2.5µM* | -25% | u
COc1ccc(-n2ncc3c(NCc4cccnc4)ncnc32)cc1 | -10% | 89% | -26% | u
Cc1ccc(-n2ncc3c(NCc4cccnc4)ncnc32)cc1C | 4% | 1µM* | -19% | u
C=CCNc1ncnc2c1cnn2-c1cccc(C)c1 | -1% | 2.2µM* | -48% | 13%
Clc1ccc(-n2ncc3c(NCc4ccccn4)ncnc32)cc1 | u | 10µM* | -61% | 12%
Cc1ccc(-n2ncc3c(NCc4cccnc4)ncnc32)c(C)c1 | 1% | -33% | -1% | -1%
Cc1ccc(CNc2ncnc3c2cnn3-c2ccc(Cl)cc2)cc1 | 4% | x | -22% | x
CCc1ccccc1NC(=O)C1CCN(C2=NS(=O)(=O)C(c3ccc(C)c(C)c3)=C2C)CC1 | -15% | x | 5% | x
CCCS(=O)(=O)NC(=O)C1(C)CCN1C(=O)Cc1ccc(Cl)cc1Cl (stereo unspecified) | x | 10% | x | x
CC1(c2nc3ccccc3[nH]2)CCCC2=Nc3ccccc3CN21 (stereo unspecified) | x | 12% | x | x
CCN1CCN(c2ccc(S(=O)(=O)N3CCOCC3)cc2NC(=O)C(C)Oc2ccc(F)cc2)CC1 (stereo unspecified) | x | 6% | x | -5%
Cc1nn2c3c(cnc2c1-c1ccccc1)C(=O)CCC3 | -8% | 13µM* | -8% | 24%
Cc1nn2c(-c3ccccc3)ccnc2c1-c1ccccc1 | u | 7.1µM* | -58% | u
Cc1nc2c(-c3ccccc3)c(C)nn2c(N)c1-c1ccccc1 | 8% | u | -77% | u
COc1ccc(C2CC(=O)c3cnc4c(-c5ccccc5)c(C)nn4c3C2)c(OC)c1 (stereo unspecified) | -1% | -18% | 3% | x
O=C(Nc1ccc(Cl)cc1)c1csc([C@@H]2C[C@H](O)[C@@H](CO)O2)n1 | x | 5% | x | x
Cn1cccc1C(=O)NC1CCCCCC1 | x | 10µM* | x | 7.1µM*
